Target: T1, CCR1 (Homo sapiens, UniProt P32246)
T1 sequence (P32246 1-355): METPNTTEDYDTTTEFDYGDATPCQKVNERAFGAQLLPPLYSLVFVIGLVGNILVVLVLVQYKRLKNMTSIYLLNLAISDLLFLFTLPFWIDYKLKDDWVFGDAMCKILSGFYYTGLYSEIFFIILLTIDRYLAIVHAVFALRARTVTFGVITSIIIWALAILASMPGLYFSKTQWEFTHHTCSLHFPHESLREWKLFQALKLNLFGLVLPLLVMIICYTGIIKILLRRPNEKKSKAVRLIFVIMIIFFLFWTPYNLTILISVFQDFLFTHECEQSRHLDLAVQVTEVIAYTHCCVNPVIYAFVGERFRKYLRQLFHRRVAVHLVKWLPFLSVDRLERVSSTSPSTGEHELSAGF
Assay: Membrane-based NanoBRET competition assay with 12 (2000 nM) and CCR1_Nluc membranes
Type: binding
Parameters: Promega pNLF1-C (Nluc) #CCR010TN00; host or cells: HEK293T, transient (PEI)

C[C@@H]1CN(Cc2ccc(F)cc2)CCN1C(=O)COc1ccc(Cl)cc1NC(N)=O [compound 1, reference compound]
Enhancement of CCR1 binding of 12: approximately 100%

From publication PMC11249626, “Fluorophore-Labeled Pyrrolones Targeting the Intracellular Allosteric Binding Site of the Chemokine Receptor CCR1” (ACS Pharmacology & Translational Science, 2024)
